The numbers were not newly measured in US12404348B2, which cites them from elsewhere.

By UniProt entry, the sequences of proteins in these tests, tags left out.
UniProt O15530, whole entry: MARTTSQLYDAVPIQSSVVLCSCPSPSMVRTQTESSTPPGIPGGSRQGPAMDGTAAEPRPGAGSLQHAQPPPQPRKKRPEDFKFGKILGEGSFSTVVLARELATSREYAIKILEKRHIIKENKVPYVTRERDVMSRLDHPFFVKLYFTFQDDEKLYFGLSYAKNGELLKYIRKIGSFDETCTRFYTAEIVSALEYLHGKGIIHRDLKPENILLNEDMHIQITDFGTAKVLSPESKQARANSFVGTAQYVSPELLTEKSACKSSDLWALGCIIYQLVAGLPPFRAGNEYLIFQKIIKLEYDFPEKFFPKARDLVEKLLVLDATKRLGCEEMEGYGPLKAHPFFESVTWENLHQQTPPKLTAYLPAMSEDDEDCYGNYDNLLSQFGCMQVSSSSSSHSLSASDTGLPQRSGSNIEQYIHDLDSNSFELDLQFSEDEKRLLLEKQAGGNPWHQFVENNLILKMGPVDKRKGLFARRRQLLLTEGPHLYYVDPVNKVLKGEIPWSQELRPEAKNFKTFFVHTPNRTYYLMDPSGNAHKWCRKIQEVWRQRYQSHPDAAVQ

For the data set, the target named is PDK1 (Homo sapiens, UniProt O15530).

As for `O=C(O)/C=C(\CCc1ccc(C(F)(F)F)cc1)c1ccccc1`, the AC50 is 7.1 n.e and the Amax is listed as 4.4 n.e.
